{"source": "patent US12691175B2", "about": "“Drug transdermal delivery system” (Xiamen University, priority 2019, dated 2026)", "settings": "porcine skin, 16 hours", "note": "Read-outs that look alike come from different tables or passages of the source.", "data": [{"substance": "FITC-Dextran-4K [FD-4K dextran]", "values": [{"measurement": "transdermal delivery rate", "setting": "low frequency sonophoresis alone", "value": "1.3±0.5", "unit": "%"}, {"measurement": "transdermal delivery rate", "setting": "low-frequency sonophoresis then sponge spicules of Haliclona sp. (2 mg, cSoSp)", "value": "9.5±1.6", "unit": "%"}, {"measurement": "transdermal delivery rate", "setting": "microneedle roller (Dermaroller 0.2 mm)", "value": "0.5±0.1", "unit": "%"}, {"measurement": "transdermal delivery rate", "setting": "microneedle roller and low-frequency sonophoresis", "value": "3.4±0.2", "unit": "%"}, {"measurement": "transdermal delivery rate", "setting": "sponge spicules of Haliclona sp. alone", "value": "1.3±0.1", "unit": "%"}]}]}
